Measured affinities in a library of Ab-14 light chain variants

Target peptide (SARS-CoV-2 spike, HR2 region): PDVDLGDISGINAS

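The parent was found by panning a naive human phage display library on the peptide. Designed CDR sequences, proposed from the first random library and measured here. Group labels follow the data file (Ctrl: baseline library sampled from a position-specific scoring matrix, with some repeated check sequences; Rand: our label for a block that the file lists under HC and that is probably the random mutants of the ten best first-round binders; En: ensemble of fine-tuned language models; GP: Gaussian process model; HC: hill climbing; Gen: genetic algorithm; Gibbs: Gibbs sampling; a sequence that several methods proposed may carry one label only). Affinity was read by AlphaSeq, a pooled yeast mating assay with surface-displayed partners. The frequency of each diploid, read from paired DNA barcodes, reflects how well the two displayed proteins bind. The ratio of observed to expected reads was calibrated, replicate by replicate, on BCL2-family standards whose Kd was known from biolayer interferometry. The assay was run in six technical replicates.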

Parent: Ab-14, a human scFv built as VH, three GGGGS repeats, VL. Only the CDRs of the light chain vary.
VH: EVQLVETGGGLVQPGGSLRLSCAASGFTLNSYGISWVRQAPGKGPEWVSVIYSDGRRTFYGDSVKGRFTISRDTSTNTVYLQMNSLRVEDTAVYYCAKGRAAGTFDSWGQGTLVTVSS
VL: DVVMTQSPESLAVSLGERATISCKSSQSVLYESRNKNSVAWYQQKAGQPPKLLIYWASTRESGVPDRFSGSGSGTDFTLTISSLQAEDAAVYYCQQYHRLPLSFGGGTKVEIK

Each variant is given by its three light chain CDRs, as the data file delimits them; those of the parent are KSSQSVLYESRNKNSVA, WASTRES, QQYHRLPLS. Numbers give log10(Kd / nM), so 0 is 1 nM and 3 is 1 µM. Smaller is tighter. Averages over replicates are reported, and they cover detected replicates only. "not detected" marks a missing value. The strain was present, yet no cells mated with the target were sequenced in any replicate, which points to weak or no binding. The authors averaged sequences with at least three values out of six and counted those with two or fewer as poor binders. Background: pairings of all light chain designs with three empty control strains gave a value in 4% of cases (median 2.64, 5th percentile 1.59). Values in that range, when seen in few replicates, are hard to tell from nonspecific mating. A sequence measured in both rounds can read differently, since the two assays cover different ranges. Of ten entries with the parent sequence, four were seen in most replicates (averages 0.34 to 2.37), three in one and three in none, so single entries are noisy.

CDR-L1 | CDR-L2 | CDR-L3 | group | log10 Kd (nM), mean | detected
KSSQSFLYESRNFNSVA | AASTRES | QQYHRLPLS | GP_HC | 0.41 | 6 of 6
KQSQSVDYESRNKNAVA | DASTRES | QQYHRLPLS | GP_HC | -0.34 | 6 of 6
TIGQTLMSGMRNRSNVA | EVSQRLN | QQYDRLPLL | En_Gen | 2.35 | 6 of 6
KVSQSHLYEERNDNNVA | QASYRES | QQYHRLPLS | GP_Gibbs | -0.05 | 6 of 6
KLRQSTLYESRNPNSVA | WASTRES | QQYHRLPLS | GP_HC | 1.49 | 6 of 6
KITQMYRYEQQNSSSIA | EANTREQ | QSYHRLPLS | En_HC | 1.75 | 6 of 6
TISDVMGHMSKHTNNVA | DMDTRGQ | QQYNRLPLS | En_Gen | 0.17 | 6 of 6
QFHSHMAGDGDIQHSIA | EADCAEP | QQYFRLPLS | En_Gibbs | 0.85 | 6 of 6
KLSMLTETEHVNRNSVA | ELVTRMS | QQYNRLPLS | En_Gen | 2.08 | 4 of 6
MVSQLMVWGMHARNSIA | EAQTRIN | QQYDRLPLF | En_Gen | 1.85 | 5 of 6
IVSQLMLWGLHAKNSIA | EAQMRLN | QQYDRLPLE | En_Gen | not detected | 0 of 6
KMSQSSQYEEHNANSVA | YASTRES | QQYHRLPLL | Ctrl | 1.08 | 6 of 6
MMSMGYLGGMRAKNNVA | QESTRES | QQYHRLPLI | En_HC | 1.39 | 6 of 6
SLSESEREELSVEQNIA | DGTEHMR | QQYFQLPLL | En_Gibbs | 1.33 | 6 of 6
RIAEQYFEYMHHINNVA | EMSCKAY | QQYAHLPLV | En_Gibbs | 3.15 | 2 of 6
TISYSALMTGLNRNSVA | QAEERLE | QQYNRLPLS | En_HC | 0.79 | 6 of 6
NVHALDAISSEFQNSIA | DQECRDA | QQYFRLPLS | En_Gibbs | 1.34 | 6 of 6
KLSMITGHMSVSKNNVA | EMETREN | QQYDRLPLS | En_Gen | 0.54 | 6 of 6
KLSQSVLYEDRNKNSVA | NASQREM | QQYHRLPLS | GP_Gen | -0.09 | 6 of 6
KSGQGVLYESRNKNSVA | GASQRES | QQYHRLPLS | GP_HC | 0.22 | 6 of 6
HITYGMYVSGRHTSNIA | QAEERAK | QQYDRLPLI | En_Gen | 0.61 | 6 of 6
KMTKAEQGAGSHQQNIA | DSNKITD | QQYYRLPLS | En_Gibbs | -0.08 | 6 of 6
KQSQSELYGSRNKNSVA | DASQRED | QDYHRLPLS | GP_Gibbs | 0.17 | 6 of 6
KVPQSVLYESRNKNAVA | NASTRES | QQYHRLPLS | GP_Gen | 0.09 | 6 of 6
KSSISELEESRNKNSVA | EASTRES | QQYHRLPLS | GP_HC | 0.65 | 6 of 6
SMSNLGMVPSVWKNSIA | DAEIVEE | QQYSRLPLT | En_Gibbs | 2.03 | 5 of 6
KLSDSVLYESRNKNSVA | GASTRES | QQYHRLPLS | GP_Gen | -0.28 | 6 of 6
MISQLYNMGQFAINSVA | QASLRNE | QQYDRLPLI | En_Gen | 1.97 | 6 of 6
MISDLTMYGSRQKNSVA | DLSTRGS | QQYHRLPLS | En_HC | -0.09 | 6 of 6

Continued, with the values leading:

log10 Kd (nM), mean | detected | CDR-L1 | CDR-L2 | CDR-L3 | group
0.36 | 6 of 6 | KSSQSVLQESRNKNSVA | NAMTRES | QQYHRLPLS | Ctrl
not detected | 0 of 6 | KSSISDLEESRNKNSVA | EASTRES | QQYHRLPLS | GP_HC
1.22 | 6 of 6 | KSSQSVLEESRNKNSVA | WASTRLS | QQYHRLPLS | Ctrl
-0.01 | 6 of 6 | KLDQSVDEKSRNKNSVA | EASTRES | QDYHRLPLS | GP_Gibbs
1.35 | 6 of 6 | KSSQSVLYESRNKNSVA | NAETRES | QQYHRLPLG | Ctrl
1.32 | 5 of 6 | KVSSFMRGLMMRTDSIA | DNETRSN | QQYDRLPLS | En_Gen
1.23 | 2 of 6 | KSSQDVLYESRNKNSVA | WASTRES | QQYHRLPLS | Ctrl
1.49 | 6 of 6 | MLWQQMEGFNGVKDAIA | NAEEREG | QQYGRLPLS | En_Gibbs
0.14 | 6 of 6 | KQSQSVLYESRNKNNVA | DASTRES | QQYHWLPLS | GP_HC
1.11 | 6 of 6 | QLYEMLYELSGKTHSVA | DNSTRGD | QQYFRLPLD | En_Gen
0.28 | 6 of 6 | KSSQSVLHESWNKTSVA | KASTRED | QQYHRLPLS | Ctrl
0.29 | 6 of 6 | KSSQSVLYESRNKNSVA | DASQRES | QQYHRLPLS | GP_Gen
0.47 | 6 of 6 | KHSQSVLREDRVKNSVA | DASQRES | QQYHRLPLS | GP_Gibbs
0.59 | 6 of 6 | MISDLTMYGMRNKNSVA | DLSTRGS | QQYHRLPLS | En_HC
0.30 | 6 of 6 | NLNVSEDQWPSSKNAIA | QTTCRVL | QQYAHLPLS | En_Gibbs
-0.42 | 6 of 6 | KLSQSVLYESRQKNSVA | DASTRES | QQYHRLPLS | GP_Gen
0.17 | 6 of 6 | KYSQSDEYESRQFNSVA | NASTRLM | QQYHRLPLS | GP_Gibbs
0.13 | 6 of 6 | KSSQSDLYESRNSNSVA | NASRRES | QQYHRLPLS | Ctrl
-0.51 | 6 of 6 | KLSQSVLYESRQKNSVA | NASQREQ | QQYHRLPLS | GP_Gen
-0.10 | 6 of 6 | KMEQGVWYESRNKNSVA | GASVRES | QQYHRLPLS | GP_HC
2.16 | 1 of 6 | MISDLTMYGSRNVNSVA | DLSTRGS | QCYHRLPLS | En_HC
1.53 | 6 of 6 | HSSPSVLAESRNKNSVF | NASTRES | QQYHRLPLS | Rand
0.38 | 6 of 6 | KLNDAYQGDIVNNQNIA | SADTLNH | QQYAKLPLS | En_Gibbs
0.35 | 6 of 6 | TLGGVTSYEMQNKNSVA | QMTTRES | QQYHRLPLS | En_HC
2.48 | 2 of 6 | QLSLMENHMGDRMHSVA | DTNQAKT | QDYFRLPLM | En_Gibbs
0.94 | 6 of 6 | KSSQSVLYESRNKNSVA | AASTREN | QQYHRLPCS | Ctrl
1.36 | 6 of 6 | MIAESVMYESRNKNSVA | DNSTRED | QCYDRLPLS | En_HC
0.05 | 6 of 6 | KLSQQHLYESRNKNSVA | QASTRES | QQYHRLPLS | GP_Gen
-0.35 | 6 of 6 | KLSQSQLYESRNKNNVA | DASTRES | QQYHRLPLS | GP_Gen

Top 5 of the variants detected in all replicates, tightest first:

{"CDR-L1": "KLSQSVLYESRQKNSVA", "CDR-L2": "NASQREQ", "CDR-L3": "QQYHRLPLS", "group": "GP_Gen", "log10 Kd (nM), mean": "-0.51", "detected": "6 of 6"}
{"CDR-L1": "KLSQSVLYESRQKNSVA", "CDR-L2": "DASTRES", "CDR-L3": "QQYHRLPLS", "group": "GP_Gen", "log10 Kd (nM), mean": "-0.42", "detected": "6 of 6"}
{"CDR-L1": "KLSQSQLYESRNKNNVA", "CDR-L2": "DASTRES", "CDR-L3": "QQYHRLPLS", "group": "GP_Gen", "log10 Kd (nM), mean": "-0.35", "detected": "6 of 6"}
{"CDR-L1": "KQSQSVDYESRNKNAVA", "CDR-L2": "DASTRES", "CDR-L3": "QQYHRLPLS", "group": "GP_HC", "log10 Kd (nM), mean": "-0.34", "detected": "6 of 6"}
{"CDR-L1": "KLSDSVLYESRNKNSVA", "CDR-L2": "GASTRES", "CDR-L3": "QQYHRLPLS", "group": "GP_Gen", "log10 Kd (nM), mean": "-0.28", "detected": "6 of 6"}

The measurements come from Li et al. 2023 (doi:10.1038/s41467-023-39022-2) through the FLAb antibody collection.